Source: article PMC11876601 (Molecular Systems Biology, 2025)
Values joined by “and” are separate entries in the source; they are usually repeats but may differ in a detail not shown here. Identical values can stand only once. Like-named read-outs stand apart in the source and are kept apart here.

Legend:
13 PDAC cell lines = experiment: Phenotypic drug combination viability screen (ATPlite, 72 h), cell line panel; format: cell-based, human
Procedure: (§1) Cell viability was assessed by measuring ATP levels to indicate metabolic activity.
(§2) Afterward, small amounts were transferred to 384-well intermediate plates (Greiner Bio-One GmbH, Germany). […] For drug combination screening, 1000 to 5000 cells were seeded into 384-well plates (CulturPlate™, Perkin Elmer, MA, USA) using a Multidrop™ Combi Reagent Dispenser (Thermo Scientific, MA, USA) in 50 µl medium per well 24 h prior to drug treatment (seeding densities see Appendix Table S1). […] The final DMSO concentration in each well was 0.2%. […] Eight wells per plate without library drug served as negative controls, and sixteen wells per plate containing 5 µM Staurosporine served as positive controls. Control plates not containing any drug were used to correct for incubation effects, and data quality was assessed by calculation of Z-prime of positive and negative controls according to1 Z-prime=1−3SDpos+3SDneg/[…] where SD is the standard deviation. […] Dose–response curves from the experimental and hypothetical data were compared, and shifts in AUC were used to describe combination effects (AUC∆ = AUChypothetical − AUCexperimental). […] Only combinations with R^2 > 0.8 in both conditions were considered in the synergy analysis.

AsPC-1 cells = experiment: Drug combination viability screen (ATPlite, 72 h); format: cell-based, human; parameters: EC50_FC_GEM low / EC50_FC_GEM high: unit not given beside the values
Procedure: as §1, §2

PANC-1 cells = experiment: Drug combination viability screen (ATPlite, 72 h); format: cell-based, human; parameters: EC50_FC_GEM low / EC50_FC_GEM high: unit not given beside the values
Procedure: as §1, §2

PaTu-8988-T cells = experiment: Drug combination viability screen (ATPlite, 72 h); format: cell-based, human; parameters: EC50_FC_GEM low / EC50_FC_GEM high: unit not given beside the values
Procedure: as §1, §2

[1] = test system: nine PDAC patient-derived organoids (PDOs); experiment: PDO viability assay (CellTiter-Glo, 72 h), panel; format: cell-based, human
Procedure: (§3) Primary patient-derived PDAC organoid (PDO) experiments were performed in the laboratories of Prof. Maximilian Reichert (University Hospital of the TU Munich, Germany, PDO set 1: B250, B535, B678) and Prof. Jens T. Siveke (University Hospital Essen, Germany; PDO set 2: UME008, UME012, UME051, UME053, UME060, UME061). PDOs were generated from surgical resection, EUS-guided fine needle biopsy (EUS-FNB), or ascites (Appendix Table S2). Surgical specimens were first minced with a sterile scalpel and subsequently washed with Anti-Anti solution and washing medium (PDO set 1), or vice versa (PDO set 2; Appendix Table S3). Biopsy samples were directly washed with an Anti-Anti solution and washing medium. Samples were digested using 1 ml of digestion medium at 37 °C while shaking, and the enzymatic reaction was stopped by adding 15 ml of washing medium (Appendix Table S3). […]
(§4) For viability assays in PDOs, confluent organoids were removed from medium, and Matrigel was dissolved by adding 200 μl (PDO set 1) or 2 ml (PDO set 2) of Cell Recovery Solution (Corning), and additionally 500 μl of DPBS (PDO set 1 only). […] After 72 h, cell viability was measured using the CellTiter-Glo Luminescent Cell Viability Assay (Promega) diluted 1:5 in the final volume of the well. […]

PDO B250 = experiment: PDO viability assay (CellTiter-Glo, 72 h); format: cell-based; conditions: Homo sapiens, read-out: EC50 mean
Procedure: (§5) Primary patient-derived PDAC organoid (PDO) experiments were performed in the laboratories of Prof. Maximilian Reichert (University Hospital of the TU Munich, Germany, PDO set 1: B250, B535, B678) and Prof. Jens T. Siveke (University Hospital Essen, Germany; PDO set 2: UME008, UME012, UME051, UME053, UME060, UME061). PDOs were generated from surgical resection, EUS-guided fine needle biopsy (EUS-FNB), or ascites (Appendix Table S2). Surgical specimens were first minced with a sterile scalpel and subsequently washed with Anti-Anti solution and washing medium (PDO set 1), or vice versa (PDO set 2; Appendix Table S3). Biopsy samples were directly washed with an Anti-Anti solution and washing medium. Samples were digested using 1 ml of digestion medium at 37 °C while shaking, and the enzymatic reaction was stopped by adding 15 ml of washing medium (Appendix Table S3). If samples of PDO set 1 were blood-stained, tissue pellets were first incubated with ACK lysing buffer/red blood cells lysis buffer (Thermo Fisher Scientific) for 5 min and then digested using TrypLE (Thermo Fisher Scientific). The reversed procedure was applied for blood-stained samples of PDO set 2. For PDO generation from ascites, the material was first spun down at 500 × g for 5 min. Then, washing medium was added and the suspension was centrifuged at 300 × g for 5 min. […]
(§6) For viability assays in PDOs, confluent organoids were removed from medium, and Matrigel was dissolved by adding 200 μl (PDO set 1) or 2 ml (PDO set 2) of Cell Recovery Solution (Corning), and additionally 500 μl of DPBS (PDO set 1 only). […] After 72 h, cell viability was measured using the CellTiter-Glo Luminescent Cell Viability Assay (Promega) diluted 1:5 in the final volume of the well. After 20 min of incubation at room temperature under gentle shaking, the acquisition was performed in the microplate reader VantaSTAR (BMG Labtech) using 3000 gain for the amplification measurement of a detected signal (PDO set 1) or the Spark Multimode microplate reader (TECAN) at 800 ms integration time (PDO set 2).

PDO B535 = experiment: PDO viability assay (CellTiter-Glo, 72 h); format: cell-based; conditions: Homo sapiens, read-out: EC50 mean
Procedure: as §5, §6

PDO B678 = experiment: PDO viability assay (CellTiter-Glo, 72 h); format: cell-based; conditions: Homo sapiens, read-out: EC50 mean
Procedure: as §5, §6

PDO UME053 = experiment: PDO viability assay (CellTiter-Glo, 72 h); format: cell-based, human; parameters: Curve top: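 fraction of plate-wise median vehicle signal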; conditions: for EC50: Homo sapiens
Procedure: Primary patient-derived PDAC organoid (PDO) experiments were performed in the laboratories of Prof. Maximilian Reichert (University Hospital of the TU Munich, Germany, PDO set 1: B250, B535, B678) and Prof. Jens T. Siveke (University Hospital Essen, Germany; PDO set 2: UME008, UME012, UME051, UME053, UME060, UME061). PDOs were generated from surgical resection, EUS-guided fine needle biopsy (EUS-FNB), or ascites (Appendix Table S2). Surgical specimens were first minced with a sterile scalpel and subsequently washed with Anti-Anti solution and washing medium (PDO set 1), or vice versa (PDO set 2; Appendix Table S3). Biopsy samples were directly washed with an Anti-Anti solution and washing medium. Samples were digested using 1 ml of digestion medium at 37 °C while shaking, and the enzymatic reaction was stopped by adding 15 ml of washing medium (Appendix Table S3). If samples of PDO set 1 were blood-stained, tissue pellets were first incubated with ACK lysing buffer/red blood cells lysis buffer (Thermo Fisher Scientific) for 5 min and then digested using TrypLE (Thermo Fisher Scientific). The reversed procedure was applied for blood-stained samples of PDO set 2. For PDO generation from ascites, the material was first spun down at 500 × g for 5 min. Then, washing medium was added and the suspension was centrifuged at 300 × g for 5 min. If the pellet was blood-stained, ACK lysis buffer was added and incubated at room temperature.
For viability assays in PDOs, confluent organoids were removed from medium, and Matrigel was dissolved by adding 200 μl (PDO set 1) or 2 ml (PDO set 2) of Cell Recovery Solution (Corning), and additionally 500 μl of DPBS (PDO set 1 only). Samples were transferred into a falcon and incubated on ice for 30 min, followed by centrifugation at 300 × g at 4 °C for 5 min (after adding 10 ml washing medium for PDO set 2). Subsequently, TrypLE Express Enzyme (Thermo Fisher) was added to cell pellets and incubated for 2 × 5 min at 37 °C. The enzymatic reaction was quenched by DPBS (PDO set 1) or washing medium (PDO set 2), and samples were washed by centrifugation at 300 × g at 4 °C for 5 min. Five hundred cells/well were seeded in 384-well plates (Corning) in 50 μl of PDO medium containing 10% Matrigel. To allow PDO generation, cells were incubated for 4 days at 37 °C and 5% CO2. […] After 72 h, cell viability was measured using the CellTiter-Glo Luminescent Cell Viability Assay (Promega) diluted 1:5 in the final volume of the well. After 20 min of incubation at room temperature under gentle shaking, the acquisition was performed in the microplate reader VantaSTAR (BMG Labtech) using 3000 gain for the amplification measurement of a detected signal (PDO set 1) or the Spark Multimode microplate reader (TECAN) at 800 ms integration time (PDO set 2).

PDO UME061 = experiment: PDO viability assay (CellTiter-Glo, 72 h); format: cell-based, human
Procedure: as §3, §4

SMILES: C[C@@H]1COCCN1c1cc(-c2ccnn2C)c2ccnc(-c3ccn[nH]3)c2n1 [Elimusertib]
- improvement of EC50 upon combination with GEM (13 PDAC cell lines): > 10 fold
- number of cell lines with synergy with GEM (13 PDAC cell lines): 12 cell lines
- EC50_FC_GEM high (AsPC-1 cells): 271.98
- EC50_FC_GEM low (AsPC-1 cells): 31.19
- EC50_log2FC_GEM high (AsPC-1 cells): 8.09
- EC50_log2FC_GEM low (AsPC-1 cells): 4.96
- Synergy (AsPC-1 cells): TRUE
- any_comb_pEC50_greater6 (AsPC-1 cells): TRUE
- EC50 (AsPC-1 cells; Homo sapiens, ASPC1, read-out: EC50 (viability)): 58 nM
- EC50_FC_GEM high (PANC-1 cells): 42.86
- EC50_FC_GEM low (PANC-1 cells): 8.97
- EC50_log2FC_GEM high (PANC-1 cells): 5.42
- EC50_log2FC_GEM low (PANC-1 cells): 3.16
- Synergy (PANC-1 cells): TRUE
- any_comb_pEC50_greater6 (PANC-1 cells): TRUE
- EC50_FC_GEM high (PaTu-8988-T cells): 159.08
- EC50_FC_GEM low (PaTu-8988-T cells): 9.69
- EC50_log2FC_GEM high (PaTu-8988-T cells): 7.31
- EC50_log2FC_GEM low (PaTu-8988-T cells): 3.28
- Synergy (PaTu-8988-T cells): TRUE
- any_comb_pEC50_greater6 (PaTu-8988-T cells): TRUE
- PDOs significantly sensitized to GEM [1]: five out of nine
- EC50 ([1]; Homo sapiens, read-out: EC50 (monotherapy)): 43 to 290 nM
- EC50 (PDO B250): 49.3 nM
- EC50 (PDO B535): 92.1 nM
- EC50 (PDO B678): 290 nM
- Curve top (PDO UME053): 1.13 and 0.99 and 1.07 and 1.15 and 1.00 and 0.79 and 1.11
- pEC50 (PDO UME053): 7.03
- EC50 (PDO UME053; read-out: EC50 mean): 123 nM
- EC50 (PDO UME053; read-out: EC50 mean [nM]): 123 nM
- Curve slope (PDO UME061): 0.52 and 0.42 and 0.35 and 0.50 and 0.27 and 0.47
- EC50 (PDO UME061; Homo sapiens, read-out: EC50 mean): 124 nM
